{
  "source": "patent US9169259B2",
  "about": "“Imidazopyridazine compounds” (Hoffmann-La Roche Inc., priority 2011, dated 2015)",
  "data": [
    {"molecular_target": "recombinant human SYK360-635 (Homo sapiens (Human), UniProt P43405)", "assay": "SYK kinase assay (33P ATP filtration, IC50 of SYK inhibition)", "format": "biochemical", "conditions": "truncated SYK aa 360-635 0.5 nM, ATP 20 μM, peptide 5 μM, 30° C. 15 min; read-out: ENZYME_FILTRATION_IC50", "method": "Determination of IC50 of Spleen Tyrosine Kinase (SYK) Inhibition:\nSYK kinase assay is a standard kinase assay adapted to a 96 well plate format. This assay is performed in 96-well format for IC50 determination with […] which represented 10 half log dilutions and a 40 μL reaction volume. The assay measures the incorporation of radiolabeled ^33P γATP into an N-terminally biotinylated peptide substrate, derived from naturally occurring phosphoacceptor consensus sequence (Biotin-11aa DY*E). Phosphorylated products were detected upon termination of reactions with EDTA and the addition of Streptavidin coated beads.\nAssay plates: 96-well MultiScreen 0.65 um filter plates (Millipore Cat. No.: MADVNOB10)\nfinal concentration: 50 mM HEPES pH7.5\nBSA: Bovine Serum Albumin Fraction V, fatty acid free (Roche Diagnostics GmbH, Cat. No. 9100221) diluted to a final concentration of 0.1%\nAssay Dilution Buffer (ADB): 50 mM HEPES, 0.1 mM EGTA, 0.1 mM Na Vanadate, 0.1 mM β-glycerophosphate, 10 mM MgCl2, 1 mM DTT, 0.1% BSA, pH 7.5\nBead wash buffer: 10 g/L PBS (Phosphate buffered saline) with 2M NaCl+1% phosphoric acid.\nDMSO and the mixture was incubated for 10 min at RT.\nThe kinase reaction was initiated by the addition of 10 μL 4× substrate cocktail containing the DYE peptide substrate [0 or 5 μM], ATP [20 μM] and ^33PγATP [2 μCi/r×n]. After incubation at 30° C. for 15 min, the reaction was terminated by the transfer of 25 μL of the reaction sample to a 96 well 0.65 μm Millipore MADVNOB membrane/plate containing 200 μL 5 mM EDTA and 20% Streptavidine coated beads in PBS.\nAfter the last wash membrane/plates were transferred to an adaptor plate, heat dried for 15 min at 60° C., and 50 μL scintillation cocktail was added to each well and 4 h later the amount of radioactivity was counted in a top counter.", "units": {"IC50": "nM"}, "values": [
      {"smiles": "CC1CCCN1c1cccc(Nc2cc(-c3ccc(OCCN4CCCCC4)cc3)nn3ccnc23)n1", "note": "(centres unmarked) [Example I-89, [6-(2-Methyl-pyrrolidin-1-yl)-pyridin-2-yl]-{6-[4-(2-piperidin-1-yl-ethoxy)-phenyl]-imidazo[1,2-b]pyridazin-8-yl}-amine]", "IC50": 89.6},
      {"smiles": "CC1CCCN1c1cccc(Nc2cc(-c3ccc(C(N)=O)cc3)nn3ccnc23)n1", "note": "(centres unmarked) [Example I-17, 4-{8-[6-(2-Methyl-pyrrolidin-1-yl)-pyridin-2-ylamino]-imidazo[1,2-b]pyridazin-6-yl}-benzamide]", "IC50": 33.1},
      {"smiles": "CC1CCCN1c1cccc(Nc2cc(-c3cccc(CN4CCCCC4)c3)nn3ccnc23)n1", "note": "(centres unmarked) [Example I-69, [6-(2-Methyl-pyrrolidin-1-yl)-pyridin-2-yl]-[6-(3-piperidin-1-ylmethyl-phenyl)-imidazo[1,2-b]pyridazin-8-yl]-amine]", "IC50": 599},
      {"smiles": "C[C@H]1CCCN1c1cccc(Nc2cc(-c3cccc(C(N)=O)c3)nn3ccnc23)n1", "note": "[Example I-51, 3-{8-[6-((S)-2-Methyl-pyrrolidin-1-yl)-pyridin-2-ylamino]-imidazo[1,2-b]pyridazin-6-yl}-benzamide]", "IC50": 16},
      {"smiles": "CC1CCCN1c1cccc(Nc2cc(-c3cccc(C(N)=O)c3)nn3ccnc23)n1", "note": "(centres unmarked) [Example I-12, 3-{8-[6-(2-Methyl-pyrrolidin-1-yl)-pyridin-2-ylamino]-imidazo[1,2-b]pyridazin-6-yl}-benzamide]", "IC50": 48.6}
    ]}
  ]
}
